This is a selection; strong and weak results do not stand in their true shares. The source made the active and inactive calls.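 Rule for the calls: active = mean inhibition of at least 30% with at least half of replicates also reaching 30%; inconclusive = no clear call, values can overlap the other calls; inactive = the rest.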
biological target: Golgi-associated PDZ and coiled-coil motif-containing protein (Homo sapiens) (UniProt Q9HD26); test: blockade of CAL PDZ-reporter peptide interaction – biochemical, fluorescence polarization, untagged CAL PDZ, HTS, primary screen (AID 602252); conditions: purified CAL PDZ, TMR-peptide fluorescence polarization, 1 h; at 24.9 µM; hits give high values;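 note: 0% = DMSO neutral control and 100% = excess unlabeled competitor peptide PRC23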

**Q.** Which inhibition does the source give for `Cc1c(NP(C)(=O)Oc2ccc(C(C)C)cc2)c(=O)n(-c2ccccc2)n1C` (centres undefined) here?
**A.** The inhibition was inactive: -0.83%.

**Q.** `O=[N+]([O-])c1cc([N+](=O)[O-])c(Nc2ccccn2)c([N+](=O)[O-])c1` was tested. Which inhibition did it give?
**A.** Its inhibition is inactive: 2.92%.

**Q.** With `CCc1ccc(OP(C)(=O)O)cc1` as the molecule, how does the inhibition read?
**A.** The inhibition was inactive: -0.336%.

**Q.** For `CP(=O)(Nc1ccccn1)Oc1ccccc1` (centres undefined), which inhibition is on record?
**A.** Its inhibition is inactive: 7.64%.

**Q.** Which inhibition does the source give for `COc1ccccc1OP(C)(=O)Nc1ccc(C)cc1C` (centres undefined) here?
**A.** Its inhibition is inactive: -1.39%.

**Q.** With `COc1ccccc1OP(C)(=O)Nc1ccc(Br)cc1` (centres undefined) as the molecule, how does the inhibition read?
**A.** Its inhibition is active: 65.5%.

**Q.** For `CN(C)CCOC(=O)C(O)(c1ccccc1)C1CCCC1` (centres undefined), which inhibition is on record?
**A.** Its inhibition is inactive: 2.39%.

**Q.** Which inhibition does the source give for `COc1ccc(OP(C)(=O)Nc2ccccn2)cc1` (centres undefined) here?
**A.** Its inhibition is inactive: -2.95%.

**Q.** `CP(=O)(Nc1ccc(Cl)cc1Cl)Oc1ccccc1` (centres undefined) was tested. Which inhibition did it give?
**A.** The inhibition was inactive: -2.49%.

**Q.** `CCCCCCCCCCCCCCCC1C[N+](C)(C)CCOP(C)(=O)O1` (centres undefined) was tested. Which inhibition did it give?
**A.** Its inhibition is inactive: -6.49%.

**Q.** `CP(=O)(OCCOc1ccccc1)OCCOc1ccccc1` was tested. Which inhibition did it give?
**A.** Its inhibition is inactive: -5.37%.

**Q.** `O=C1C(O)=C([N+](=O)[O-])C(=O)C(O)=C1[N+](=O)[O-]` was tested. Which inhibition did it give?
**A.** The inhibition was inactive: 7.52%.

**Q.** Which inhibition does the source give for `Cc1cc(C)cc(OP(C)(=O)Nc2cccc(C(F)(F)F)c2)c1` (centres undefined) here?
**A.** The inhibition was inactive: -3.18%.

**Q.** How did the inhibition turn out when `COc1ccc(OP(C)(=O)Nc2ccccc2Br)cc1` (centres undefined) was run?
**A.** The inhibition was inactive: 1.07%.

**Q.** `COc1ccccc1OP(C)(=O)Nc1ccc(C)c(C)c1` (centres undefined) was tested. Which inhibition did it give?
**A.** Its inhibition is inactive: -4.8%.

**Q.** With `CP(=O)(OC12CC3CC(CC(C3)C1)C2)OC12CC3CC(CC(C3)C1)C2` as the molecule, how does the inhibition read?
**A.** The inhibition was inactive: -0.212%.

**Q.** Which inhibition does the source give for `CCOC(=O)c1ccc(NP(C)(=O)Oc2ccc(Cl)cc2)cc1` (centres undefined) here?
**A.** The inhibition was inactive: -0.848%.

**Q.** For `CP(=O)(Nc1ccc(Cl)cc1)Oc1ccc(F)cc1` (centres undefined), which inhibition is on record?
**A.** The inhibition was inactive: -1.39%.

**Q.** `COc1ccccc1OP(C)(=O)Nc1ccccc1Br` (centres undefined) was tested. Which inhibition did it give?
**A.** The inhibition was inactive: 21.8%.

**Q.** How did the inhibition turn out when `CC(C)(C)c1ccc(OP(C)(=O)O)cc1` was run?
**A.** Its inhibition is inactive: 20.2%.

**Q.** `CN(C)C(=O)c1c([N+](=O)[O-])cc([N+](=O)[O-])cc1[N+](=O)[O-]` was tested. Which inhibition did it give?
**A.** Its inhibition is inactive: -1.69%.

**Q.** With `CCN(CC)CC(O)COC(=O)C(O)(c1ccccc1)C1CCCCC1` (centres undefined) as the molecule, how does the inhibition read?
**A.** Its inhibition is inactive: 4.2%.

**Q.** How did the inhibition turn out when `COc1ccc(OP(C)(=O)Nc2ccc(Br)cc2)cc1` (centres undefined) was run?
**A.** Its inhibition is inactive: -1.2%.

**Q.** For `CP(=O)(Oc1ccccc1)N1CCOC1=O` (centres undefined), which inhibition is on record?
**A.** Its inhibition is inactive: -4.52%.

**Q.** `CCc1ccc(OP(C)(=O)Nc2cccnc2)cc1` (centres undefined) was tested. Which inhibition did it give?
**A.** The inhibition was inactive: -3.2%.

**Q.** Which inhibition does the source give for `COc1ccccc1OP(C)(=O)Nc1c(C)n(C)n(-c2ccccc2)c1=O` (centres undefined) here?
**A.** Its inhibition is inactive: -1.89%.

**Q.** `O=C(OCCCN1CCCC1)C(O)(c1ccccc1)C1CCCCC1` (centres undefined) was tested. Which inhibition did it give?
**A.** The inhibition was inactive: -2.14%.

**Q.** For `CP(=O)(Nc1ccc2c(c1)OCCO2)Oc1ccccc1` (centres undefined), which inhibition is on record?
**A.** The inhibition was inactive: -9.06%.

**Q.** Which inhibition does the source give for `Cc1ccccc1NP(C)(=O)Nc1ccccc1C` here?
**A.** The inhibition was inactive: -7.16%.

— PubChem BioAssay AID602252 (Broad Institute, 2012)
